Publication PMC10132805 (2023)

How the values were obtained:
[1] = target: T1, NEDD4 binding peptide from RNF11 (human, UniProt Q9Y3C5); test: FP; NEDD4 WW2
[2] = target: T1, NEDD4 binding peptide from RNF11; test: FP; NEDD4 WW4

GPLPPGWEERTHTDGRIFYINHNIKRTQWEDPRL (domain or fragment) [E3 ubiquitin-protein ligase NEDD4 WW domain]
Kd [1]: 13 µM
Kd [2]: 44 µM
